From PMC10057528, “Trypanosoma cruzi Sirtuin 2 as a Relevant Druggable Target: New Inhibitors Developed by Computer-Aided Drug Design” (Pharmaceuticals, 2023)

Test system: LLCMK2 cells
Test: Mammalian cell viability assay (MTT)
Format: cell-based
Details: EC50 LLCMK2 / IC50 T. cruzi amastigote
Method: LLCMK2 cells were maintained in RPMI-1640 medium supplemented with 10% fetal bovine serum (FBS) (Gibco, Carlsbad, CA, USA), penicillin/streptomycin (100 μg.mL^−1 and 0.1 mg.mL^−1, respectively, Sigma-Aldrich, St. Louis, Mo, USA) and 2 mM L-glutamine, and treated every second day. […] All cells were maintained in humidified CO2 at 37 °C. Cells were obtained at the third passage, propagated, and used in experiments between the fourth and fifth passages. Cells were routinely checked for contamination with mycoplasma by PCR. […] The principle of this method, as described by Mosmann et al., consists in measuring the cellular viability of the enzymatic activity of […] of living cells. […] At the end of the period incubation. 50 μL MTT (Sigma-Aldrich Corp. St. Louis, MO, USA) at the concentration of 2 mg.mL^−1. After 4 h incubation, 50 μL DMSO per well was added to dissolve formazan blue crystals. The absorbance was determined at 570 nm using Biotek Synergy HT microplate spectrophotometer. The percentage of cell viability was determined from the following formula (40): Cell Viability (%) = (Treatment Absorbance)/(Control Absorbance negative) × 100.

Compound	SIama, selectivity index (EC50/IC50(ama))
O=C(Cn1ccnc1[N+](=O)[O-])NCc1ccccc1 [BZN, benznidazole, reference compound]	44.8
O=C(NCc1coc(-c2ccccc2)n1)Nc1ccc(-c2noc(C(F)(F)F)n2)cc1 [CDMS-01]	1.77
